Data published in PubChem BioAssay AID1224863 (Southern Research Institute, 2016).
Screen size: about 10,000 compounds; about 15 (0.1%) were called active.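 How the source made its calls: active means highest signal at least 8 times the median of untreated cell-only control wells at some dose; inactive means the rest.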 A selection follows.

Amino acid sequences for entries named in this document (tags omitted). Chains listed by the source or under a name are the forms on record and can include a tag or linker.
UniProt P13569, with tags, fused parts or gaps F508del: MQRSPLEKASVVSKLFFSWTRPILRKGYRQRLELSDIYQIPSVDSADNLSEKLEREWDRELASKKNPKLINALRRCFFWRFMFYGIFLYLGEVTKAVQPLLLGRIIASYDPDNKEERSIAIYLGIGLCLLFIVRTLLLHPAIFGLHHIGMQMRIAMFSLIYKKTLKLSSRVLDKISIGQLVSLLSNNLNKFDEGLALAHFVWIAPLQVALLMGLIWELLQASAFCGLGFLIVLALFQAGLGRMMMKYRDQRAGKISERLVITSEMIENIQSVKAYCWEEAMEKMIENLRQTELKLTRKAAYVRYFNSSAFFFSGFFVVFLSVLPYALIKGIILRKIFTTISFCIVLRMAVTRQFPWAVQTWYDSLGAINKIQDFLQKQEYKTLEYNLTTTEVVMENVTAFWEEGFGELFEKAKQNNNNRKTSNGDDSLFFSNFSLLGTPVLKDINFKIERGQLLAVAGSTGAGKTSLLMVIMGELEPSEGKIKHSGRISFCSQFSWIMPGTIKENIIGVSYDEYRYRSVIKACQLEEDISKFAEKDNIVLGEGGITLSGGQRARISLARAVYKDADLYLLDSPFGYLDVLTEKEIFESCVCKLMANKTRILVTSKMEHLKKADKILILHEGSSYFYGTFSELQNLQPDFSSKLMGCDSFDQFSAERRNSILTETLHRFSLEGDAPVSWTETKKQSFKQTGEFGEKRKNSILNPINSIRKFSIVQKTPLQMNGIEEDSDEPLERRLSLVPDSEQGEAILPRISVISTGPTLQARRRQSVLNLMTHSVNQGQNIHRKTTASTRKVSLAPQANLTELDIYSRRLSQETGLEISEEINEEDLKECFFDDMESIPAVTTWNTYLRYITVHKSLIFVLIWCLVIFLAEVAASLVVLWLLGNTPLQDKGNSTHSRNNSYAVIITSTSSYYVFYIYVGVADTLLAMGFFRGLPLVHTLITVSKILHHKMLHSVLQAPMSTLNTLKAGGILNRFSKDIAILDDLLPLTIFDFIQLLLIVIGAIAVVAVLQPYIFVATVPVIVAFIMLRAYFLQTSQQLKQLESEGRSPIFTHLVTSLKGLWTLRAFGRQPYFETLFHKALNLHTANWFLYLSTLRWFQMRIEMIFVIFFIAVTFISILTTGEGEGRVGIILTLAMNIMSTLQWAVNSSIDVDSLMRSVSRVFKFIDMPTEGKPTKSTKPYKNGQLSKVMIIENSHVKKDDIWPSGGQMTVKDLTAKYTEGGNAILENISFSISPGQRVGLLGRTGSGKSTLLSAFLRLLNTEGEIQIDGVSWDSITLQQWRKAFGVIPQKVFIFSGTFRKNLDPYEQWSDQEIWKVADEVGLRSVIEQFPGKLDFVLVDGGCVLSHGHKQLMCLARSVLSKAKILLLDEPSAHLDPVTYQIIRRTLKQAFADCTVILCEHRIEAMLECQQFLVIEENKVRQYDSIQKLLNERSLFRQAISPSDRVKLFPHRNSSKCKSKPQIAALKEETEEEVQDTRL

Legend:
[1] = total CFTR protein upregulators, primary screen, cell-based, HeLa F508del-CFTR, immunofluorescence, viability (AID 1224863); settings: 24 h, stronger effect = higher value; min viability: measured here: HeLa viability, alamarBlue, dose 20, library dosed in µg/mL unless noted; viability: measured here: primary viability 10 ug/mL, library dosed in µg/mL unless noted;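 on fold increase: total CFTR protein by anti-CFTR immunofluorescence in fixed cells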
[2] = molecular target: Cystic fibrosis transmembrane conductance regulator (Homo sapiens) (UniProt P13569); assay: as above; settings: 24 h; fold increase: measured here: primary screen 10 ug/mL, library dosed in µg/mL, stronger effect = higher value unless noted; max fold increase: dose 10, library dosed in µg/mL, stronger effect = higher value unless noted; outcome: library dosed in µg/mL unless noted

| SMILES | viability [1] [%] | fold increase [2] | outcome [2] |
| --- | --- | --- | --- |
| CC(C)Cn1nnc(-c2ccc(Cl)cc2)n1 | 99 | 1.4 | inactive |
| O=C(O)c1cc(C2CC2)nc2onc(-c3ccco3)c12 | 109 | 1.11 | inactive |
| N#Cc1nc2c(S(=O)(=O)c3ccc(Cl)cc3)c(N)n(Cc3ccc(C(F)(F)F)cc3)c2nc1C#N | 87 | 0.86 | inactive |
| Cc1cc(C)n2c(=S)n(CN(C)Cc3ccccc3Cl)nc2n1 | 97 | 0.97 | inactive |
| CC(NCC(O)c1ccccc1)c1ccccc1 (stereo unspecified) | 103 | 1.06 | inactive |
| CC(Cc1ccc(Cl)cc1)NC(=O)C1(C)CC1(Cl)Cl (stereo unspecified) | 94 | 0.98 | inactive |
| COc1ccc2c(COC(=O)c3ccc4c(c3)S(=O)(=O)N=C3CCCCCN34)cc(=O)oc2c1 | 83 | 1.02 | inactive |
| CCc1c(C)sc2nc(SCCO)n(CCOC)c(=O)c12 | 95 | 1 | inactive |
| CCOC(=O)C1=C(CC)Nc2ccccc2N=C1NC(=O)C12CC3CC(CC(Cl)(C3)C1)C2 | 85 | 1.09 | inactive |
| Cn1ccc(S(=O)(=O)N2CCN(C(=O)CCC(=O)c3cccs3)CC2)c1 | 103 | 1.19 | inactive |
| CCc1cc(OCCCCNC)ccc1Cl | 104 | 1.06 | inactive |
| Cc1c(C(=O)CN2C(=O)NC3(CCOc4ccccc43)C2=O)sc2ccccc12 (stereo unspecified) | 115 | 1.07 | inactive |
| COC(=O)c1ccc(OCC(=O)c2ccc3c(c2)CCO3)c(OC)c1 | 97 | 1.01 | inactive |
| CC(CCc1ccco1)NC(=O)N1CCN(Cc2nc3scc(-c4cccs4)c3c(=O)[nH]2)CC1 (stereo unspecified) | 92 | 0.93 | inactive |
| c1ccc2c(c1)ncn2CN1CCN(Cc2csc3ccccc23)CC1 | 107 | 1.18 | inactive |
| Cc1cccc(CN2CCN(CN3C(=O)C(=O)N(C(C)C)C3=O)CC2)c1 | 95 | 1.02 | inactive |
| CN(C)S(=O)(=O)N1CCN(C(=O)Nc2cccc3c2CCCC3)CC1 | 102 | 0.97 | inactive |
| COCC(C)NC(=O)c1sccc1C (stereo unspecified) | 102 | 0.9 | inactive |
| CC(C)(C)OC(=O)N1CC=C(n2c(=O)n(CN3CCN(c4ccccc4)CC3)c3ccccc32)CC1 | 98 | 1.06 | inactive |

| SMILES | viability [1] [%] | fold increase [2] | outcome [2] |
| --- | --- | --- | --- |
| COc1ccc(C)cc1-n1nnnc1SCC1CC1(Cl)Cl (stereo unspecified) | 86 | 0.87 | inactive |
| Cn1nnnc1SCc1ncc(-c2ccc(F)cc2)o1 | 94 | 1.03 | inactive |
| CN(C)S(=O)(=O)c1ccc(CN2C(=O)NC(C)(c3ccco3)C2=O)o1 (stereo unspecified) | 97 | 0.98 | inactive |
| COc1ccc(S(=O)(=O)Nc2ccc(N3CCCC3)cc2)cc1OC | 84 | 0.85 | inactive |
| N#Cc1ccc(CS(=O)(=O)N2CCCCCCC2)cc1 | 95 | 1.03 | inactive |
| Nc1cnn(CCO)c1 | 92 | 0.96 | inactive |
| CC(c1cc2ccccc2o1)N(C)Cc1noc(C(C)(C)C)n1 (stereo unspecified) | 89 | 0.88 | inactive |
| N#Cc1nncn1-c1ncnc2sc3c(c12)CCC3 | 95 | 1.06 | inactive |
| CCNc1nc(C)nc2sc(CC)cc12 | 84 | 0.96 | inactive |
| CCC(C)(C)NC(=O)CCNC(=O)/C=C/c1ccco1 | 80 | 0.85 | inactive |
| CC(C)Sc1nc2cc(Cl)ccc2c(=O)n1CC1CCCO1 (stereo unspecified) | 90 | 0.87 | inactive |
| CC(C)(C)N=C1NN=C(c2cccc(F)c2)CS1 | 75 | 0.85 | inactive |
| Clc1ccc(-n2nnnc2SCCCc2nc3ccccc3o2)cc1 | 84 | 0.85 | inactive |
| Cc1nn(-c2ccccc2)c2c1CC(C#N)(c1nc3ccccc3s1)C1CCCN21 (stereo unspecified) | 89 | 1.29 | inactive |
| O=S(=O)(NCCc1ccc2c(c1)OCCO2)c1ccc2c(c1)CCC2 | 95 | 0.9 | inactive |
| C=CCn1c(SC(C)c2nnnn2-c2ccccc2)nnc1-c1ccoc1C (stereo unspecified) | 93 | 1.01 | inactive |
| Cc1nc(N2CCC(NS(C)(=O)=O)CC2)c2c3c(sc2n1)CCC3 | 85 | 0.99 | inactive |
| CS(=O)(=O)CCC(=O)Nc1nc2c(s1)CCC2 | 92 | 1.13 | inactive |
